The source made the active and inactive calls. The calls are words filed in the database; no cut-off is given here.
Molecular target: Amyloid-beta precursor protein (Homo sapiens) (UniProt P05067)
Test: Inhibition of amyloid beta (1 to 42) (unknown origin) self-induced aggregation assessed as reduction in amyloid beta fibrils by transmission electron microscopic analysis

By UniProt entry, the sequences of proteins in these tests, tags left out.
UniProt P05067, whole entry: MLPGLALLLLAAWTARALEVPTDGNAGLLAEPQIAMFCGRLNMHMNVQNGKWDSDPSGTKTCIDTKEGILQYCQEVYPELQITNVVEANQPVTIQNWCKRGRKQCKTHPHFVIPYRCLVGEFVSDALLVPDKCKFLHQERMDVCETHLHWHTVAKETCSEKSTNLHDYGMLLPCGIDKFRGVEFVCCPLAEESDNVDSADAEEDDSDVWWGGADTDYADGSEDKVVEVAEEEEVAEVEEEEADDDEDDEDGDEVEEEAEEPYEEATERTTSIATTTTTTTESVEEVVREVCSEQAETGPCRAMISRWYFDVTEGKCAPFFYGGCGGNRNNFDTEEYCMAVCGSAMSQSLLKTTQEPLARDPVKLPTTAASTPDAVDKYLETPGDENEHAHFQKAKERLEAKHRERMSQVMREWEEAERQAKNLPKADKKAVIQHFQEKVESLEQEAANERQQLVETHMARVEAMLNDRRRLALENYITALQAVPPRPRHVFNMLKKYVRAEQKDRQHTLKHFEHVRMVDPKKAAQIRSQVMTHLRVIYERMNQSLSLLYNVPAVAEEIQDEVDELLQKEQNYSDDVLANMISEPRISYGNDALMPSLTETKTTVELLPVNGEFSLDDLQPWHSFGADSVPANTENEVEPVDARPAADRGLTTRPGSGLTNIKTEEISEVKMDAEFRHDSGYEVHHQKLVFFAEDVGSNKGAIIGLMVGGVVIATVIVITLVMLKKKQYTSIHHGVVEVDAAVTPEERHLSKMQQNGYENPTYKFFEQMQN

COc1cc(/C=C/C(=O)CC(=O)/C=C/c2ccc(O)c(OC)c2)ccc1O
inhibition: Active
